The results in this text go back to publication PMC7913291, “Synthesis and Anti-Hepatocarcinoma Effect of Amino Acid Derivatives of Pyxinol and Ocotillol” (Molecules, 2021).

The conditions of this series: mouse, in vivo, 25 mg/kg. On the procedure:
Cyclophosphamide (CTX), used as the positive drug, was purchased from Sigma (St. Lousis, MO, USA. Detecting kits for IL-2, TNF-α, VEGF, AST, ALT, CRE and BUN were purchased from Nanjing Jiancheng Biotechnology Co. (Nanjing, China).
24 h after the last administration, the whole blood was collected from the orbit. Serum was obtained from whole blood by centrifugation (3500 rpm, 15 min, 4 °C) and stored at −20 °C. The levels of IL-2, TNF-α, VEGF, AST, ALT, BUN and CRE in serum were determined in accordance with the procedures described in commercial kit instructions.

Each structure is given as a SMILES string.

Consider `CC(C)(O)[C@H]1CC[C@@](C)(C2CC[C@]3(C)C2[C@H](O)CC2[C@@]4(C)CC[C@H](OC(=O)C5CCCN5)C(C)(C)C4CC[C@]23C)O1` (stereo partly drawn) [2e, (20S, 24R)-Epoxy-3β-O-(L-prolyl)-dammarane-12β, 25-diol], for which the BUN is recorded as 12.70 ± 2.24 ^#, ** mmol/L.
